Test results as given in PMC7696216, “Bi-Functional Alginate Oligosaccharide–Polymyxin Conjugates for Improved Treatment of Multidrug-Resistant Gram-Negative Bacterial Infections” (Pharmaceutics, 2020).
Read-outs that look alike come from different tables or passages of the source.

Key:
K. pneumoniae IR25 = format: cell-based, Klebsiella pneumoniae
Method: (§1) The minimum inhibitory concentration (MIC) of colistin (as sulphate salt) and polymyxin B and their conjugates was determined using the broth microdilution method in MH broth in accordance with standard guidelines. Test organisms were suspended in MH broth (100 µL, 5 × 10^5 colony forming units (CFU)/mL) and incubated in 96-well microtitre plates in serial two-fold dilutions of the test compounds. […] Results were expressed as mode (n = 3). […] Selective activities of the polymyxins and OligoG–polymyxin conjugates were calculated as follows:Selectivity index (SI) = IC50 (μg/mL)/MIC (μg/mL).
(§2) To account for turbidity caused by mucin, resazurin dye solution (30 µL, 0.01% w/v in dH2O) was added to each well and incubated for a further 3 h at 37 °C. Colour changes were observed and recorded.

K. pneumoniae KP05 506 = format: cell-based, Klebsiella pneumoniae
Method: as §1
(§3) In addition, alginate oligomer–colistin conjugates (3 mg/mL) were incubated in PBS at pH 7 containing bacterial alginate lyase (1 and 10 U/mL) at 37 °C for 24 h, before preparing microtitre plates as described above.
(§4) To study the antimicrobial efficacy of test compounds under more clinically relevant conditions, the MIC protocol was performed using AS medium instead of MH broth. The plates were incubated with resazurin as described above.

E. coli PN21 = experiment: MIC, broth microdilution; format: cell-based, Escherichia coli; conditions: SI = IC50 (µg/mL, HK-2)/MIC (µg/mL)
Method: as §1

A. baumannii MDR ACB = format: cell-based, Acinetobacter baumannii; conditions: SI = IC50 (µg/mL, HK-2)/MIC (µg/mL)
Method: as §1, §2

P. aeruginosa NH57388A = experiment: MIC, broth microdilution; format: cell-based, Pseudomonas aeruginosa; conditions: SI = IC50 (µg/mL, HK-2)/MIC (µg/mL)
Method: as §1, §4

P. aeruginosa MDR 301 = format: cell-based, Pseudomonas aeruginosa; conditions: SI = IC50 (µg/mL, HK-2)/MIC (µg/mL)
Method: as §1, §3, §4

A. baumannii 7789 [1] = experiment: Time-to-kill (TTK) in PK–PD model; format: cell-based, Acinetobacter baumannii; conditions: 0.25 µg/mL colistin base, after 4 h
Method: A modified experimental set-up was used to investigate the concentration- and time-dependent antimicrobial activity of test compounds using a TTK assay (48 h). […] The OC contained MH broth inoculated with A. baumannii 7789 (5 × 10^5 CFU/mL). Samples were collected from the OC (0, 2, 4, 6, 24 and 48 h) and colony counts (CFU/mL) determined using drop counts. Treatments were considered bactericidal if the reduction in viable bacterial counts was ≥3 log10 CFU/mL (equivalent to 99.9% of the initial inoculum) and bacteriostatic if the decrease was <3 log10 CFU/mL [33, 34]. Growth (no test compounds) and sterility (no bacteria) controls were also performed.

[2] = tested on: range of Gram-negative bacterial pathogens; experiment: MIC and selectivity index across the panel of isolates; format: cell-based; conditions: mean SI over the isolates of Table S4
Method: as §1

A. baumannii 7789 [3] = format: cell-based, Acinetobacter baumannii; conditions: SI = IC50 (µg/mL, HK-2)/MIC (µg/mL)
Method: as §1, §3, §4

E. coli NCTC 10418 = format: cell-based, Escherichia coli; conditions: SI = IC50 (µg/mL, HK-2)/MIC (µg/mL)
Method: as §1

HK-2 cells = experiment: MTT cytotoxicity assay; format: cell-based, Human; conditions: 72 h incubation, 0–1 mg/mL polymyxin base, ±SEM (n = 18)
Method: A 3-(4,5-dimethylthiazol-2-yl)-2,5-diphenyltetrazolium bromide (MTT) assay was used to measure cell viability and proliferation of HK-2 cells. Cells were seeded into sterile 96-well microtitre plates at 1 × 10^5 cells/mL (100 µL/well) and allowed to adhere for 24 h at 37 °C. The following day, the old medium was replaced with test compounds (0–1 mg/mL polymyxin base) dissolved in filter-sterilised K-SFM. After 67 h incubation at 37 °C, filter-sterilised MTT solution (20 µL of a 5 mg/mL solution in PBS) was added to each well and incubated for a further 5 h at 37 °C. Finally, the medium was carefully removed, and the formazan crystals were solubilised in DMSO (100 µL) for 30 min. Absorbance was measured at 550 nm using a Fluostar Omega microplate reader. The results are stated as percentage cell viability compared with the untreated control cells. Data are expressed as mean ± SEM (n = 18).

P. aeruginosa NCTC 10662 = format: cell-based, Pseudomonas aeruginosa; conditions: SI = IC50 (µg/mL, HK-2)/MIC (µg/mL)
Method: as §1

P. aeruginosa R22 = format: cell-based, Pseudomonas aeruginosa; conditions: SI = IC50 (µg/mL, HK-2)/MIC (µg/mL)
Method: as §1, §2

colistin sulphate
MIC (K. pneumoniae IR25; MH broth, mucin 0%, resazurin read-out): 0.063 μg/mL Drug Base | Selectivity index (SI) value (K. pneumoniae IR25; SI = IC50 (µg/mL, HK-2)/MIC (µg/mL), K. pneumoniae IR25): 413 | MIC (K. pneumoniae KP05 506; AS (artificial sputum) medium, resazurin read-out): 1 μg/mL Drug Base | MIC (K. pneumoniae KP05 506; MH broth (Table S7 comparison with AS medium)): 0.125 μg/mL Drug Base | Selectivity index (SI) value (K. pneumoniae KP05 506; SI = IC50 (µg/mL, HK-2)/MIC (µg/mL), K. pneumoniae KP05 506): 208 | MIC (K. pneumoniae KP05 506; alginate lyase in MH broth, 0 U/mL): 0.008 μg/mL Drug Base | MIC (K. pneumoniae KP05 506; alginate lyase in MH broth, 1 U/mL): 0.063 μg/mL Drug Base | MIC (K. pneumoniae KP05 506; alginate lyase in MH broth, 10 U/mL): 0.008 μg/mL Drug Base | MIC (K. pneumoniae KP05 506; pre-incubation with alginate lyase 0 U/mL (3 mg/mL in PBS pH 7, 37 °C, 24 h), then MIC in MH broth): 0.008 μg/mL Drug Base | MIC (K. pneumoniae KP05 506; pre-incubation with alginate lyase 1 U/mL (3 mg/mL in PBS pH 7, 37 °C, 24 h), then MIC in MH broth): 0.004 μg/mL Drug Base | MIC (K. pneumoniae KP05 506; pre-incubation with alginate lyase 10 U/mL (3 mg/mL in PBS pH 7, 37 °C, 24 h), then MIC in MH broth): 0.004 μg/mL Drug Base | Selectivity index (SI) value (E. coli PN21): 3 | Selectivity index (SI) value (A. baumannii MDR ACB): 52 | Selectivity index (SI) value (P. aeruginosa NH57388A): 104 | Selectivity index (SI) value (P. aeruginosa MDR 301): 52 | viable bacterial counts, fold lower compared to the control (A. baumannii 7789 [1]): ~ 5 fold | viable bacterial counts, fold lower compared to the initial starting bacterial concentration (A. baumannii 7789 [1]): ~ 2 fold | Selectivity index (SI) value, Mean [2]: 184 | Selectivity index (SI) value (A. baumannii 7789 [3]): 104 | Selectivity index (SI) value (E. coli NCTC 10418): 3 | Half maximal inhibitory concentration (IC50), cytotoxicity (HK-2 cells): 26 mg/L | Selectivity index (SI) value (P. aeruginosa NCTC 10662): 208 | Selectivity index (SI) value (P. aeruginosa R22): 52
